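Growth conditions: 96-well plates. Treatment: test compound, 48 hours, 5 concentrations. Analysis: linear interpolation between bracketing concentrations; unreached endpoints set to highest concentration. GI50: concentration for 50% inhibition of growth. TGI: total growth inhibition.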
What was measured:
Experiment in all cases: NCI-60 cell line screen, 48 h
[1] = test system: UO-31 renal
[2] = test system: KM12 colon
[3] = test system: OVCAR-8 ovarian
[4] = test system: PC-3 prostate
[5] = test system: 786-0 renal
[6] = test system: NCI-H460 lung
[7] = test system: U251 CNS
[8] = test system: CAKI-1 renal
[9] = test system: UACC-257 melanoma
[10] = test system: MDA-MB-435
[11] = test system: NCI-H23 lung
[12] = test system: LOX IMVI melanoma
[13] = test system: MALME-3M melanoma
[14] = test system: A498 renal
[15] = test system: NCI-H522 lung
[16] = test system: SK-MEL-2 melanoma
[17] = test system: SNB-19 CNS
[18] = test system: T-47D breast
[19] = test system: K-562 leukemia
[20] = test system: CCRF-CEM leukemia
[21] = test system: IGROV1 ovarian
[22] = test system: EKVX NSCLC
[23] = test system: MOLT-4 leukemia
[24] = test system: M14 melanoma
[25] = test system: OVCAR-4 ovarian
[26] = test system: HOP-62 NSCLC
[27] = test system: HCT-116 colon
[28] = test system: NCI/ADR-RES ovarian
[29] = test system: SR leukemia
[30] = test system: UACC-62 melanoma
[31] = test system: COLO 205 colon
[32] = test system: SF-295 CNS
[33] = test system: SK-OV-3 ovarian
[34] = test system: SK-MEL-28 melanoma
[35] = test system: HS 578T breast
[36] = test system: RXF 393 renal
[37] = test system: OVCAR-3 ovarian
[38] = test system: SF-268 CNS
[39] = test system: SF-539 CNS
[40] = test system: ACHN renal
[41] = test system: SK-MEL-5 melanoma
[42] = test system: OVCAR-5 ovarian
[43] = test system: SN12C renal
[44] = test system: HCC-2998 colon
[45] = test system: MCF7 breast
[46] = test system: TK-10 renal
[47] = test system: SW-620 colon
[48] = test system: HCT-15 colon
[49] = test system: DU-145 prostate
[50] = test system: HL-60(TB) leukemia
[51] = test system: HT29 colon
[52] = test system: HOP-92 NSCLC
[53] = test system: A549 NSCLC
[54] = test system: MDA-MB-231 breast
[55] = test system: MDA-N
[56] = test system: NCI-H322M lung
[57] = test system: RPMI-8226 leukemia
[58] = test system: SNB-75 CNS

O=C1CCC(C(=O)OC2CN3CCC2CC3)C(=O)N1 (stereo unspecified) showed a GI50 [1] of 78.3 µM, a TGI [1] greater than 100 µM and a GI50 [2] greater than 100 µM. The TGI [2] was greater than 100 µM, the GI50 [3] was greater than 100 µM and the TGI [3] was greater than 100 µM. For the same molecule, the GI50 [4] was greater than 100 µM, the TGI [4] was greater than 100 µM and the GI50 [5] was greater than 100 µM. For the same molecule, the TGI [5] was greater than 100 µM, the GI50 [6] was greater than 100 µM and the TGI [6] was greater than 100 µM. It also gave a GI50 [7] greater than 100 µM, a TGI [7] greater than 100 µM and a GI50 [8] greater than 100 µM. The TGI [8] was greater than 100 µM, the GI50 [9] was greater than 100 µM and the TGI [9] was greater than 100 µM. For the same molecule, the GI50 [10] was greater than 100 µM, the TGI [10] was greater than 100 µM and the GI50 [11] was greater than 100 µM. For the same molecule, the TGI [11] was greater than 100 µM, the GI50 [12] was greater than 100 µM and the TGI [12] was greater than 100 µM. It also gave a GI50 [13] greater than 100 µM, a TGI [13] greater than 100 µM and a GI50 [14] greater than 100 µM. For the same molecule, the TGI [14] was greater than 100 µM, the GI50 [15] was greater than 100 µM and the TGI [15] was greater than 100 µM. The GI50 [16] was greater than 100 µM, the TGI [16] was greater than 100 µM and the GI50 [17] was greater than 100 µM. It also gave a TGI [17] greater than 100 µM, a GI50 [18] greater than 100 µM and a TGI [18] greater than 100 µM. For the same molecule, the GI50 [19] was greater than 100 µM, the TGI [19] was greater than 100 µM and the GI50 [20] was greater than 100 µM. For the same molecule, the TGI [20] was greater than 100 µM, the GI50 [21] was greater than 100 µM and the TGI [21] was greater than 100 µM. It also gave a GI50 [22] greater than 100 µM, a TGI [22] greater than 100 µM and a GI50 [23] greater than 100 µM. It also gave a TGI [23] greater than 100 µM, a GI50 [24] greater than 100 µM and a TGI [24] greater than 100 µM. For the same molecule, the GI50 [25] was greater than 100 µM, the TGI [25] was greater than 100 µM and the GI50 [26] was greater than 100 µM. The TGI [26] was greater than 100 µM, the GI50 [27] was greater than 100 µM and the TGI [27] was greater than 100 µM. The GI50 [28] was greater than 100 µM, the TGI [28] was greater than 100 µM and the GI50 [29] was greater than 100 µM. The TGI [29] was greater than 100 µM, the GI50 [30] was greater than 100 µM and the TGI [30] was greater than 100 µM. The GI50 [31] was greater than 100 µM, the TGI [31] was greater than 100 µM and the GI50 [32] was greater than 100 µM. The TGI [32] was greater than 100 µM, the GI50 [33] was greater than 100 µM and the TGI [33] was greater than 100 µM. The GI50 [34] was greater than 100 µM, the TGI [34] was greater than 100 µM and the GI50 [35] was greater than 100 µM. For the same molecule, the TGI [35] was greater than 100 µM, the GI50 [36] was greater than 100 µM and the TGI [36] was greater than 100 µM. It also gave a GI50 [37] greater than 100 µM, a TGI [37] greater than 100 µM and a GI50 [38] greater than 100 µM. It also gave a TGI [38] greater than 100 µM, a GI50 [39] greater than 100 µM and a TGI [39] greater than 100 µM. It also gave a GI50 [40] greater than 100 µM, a TGI [40] greater than 100 µM and a GI50 [41] greater than 100 µM. It also gave a TGI [41] greater than 100 µM, a GI50 [42] greater than 100 µM and a TGI [42] greater than 100 µM. It also gave a GI50 [43] greater than 100 µM, a TGI [43] greater than 100 µM and a GI50 [44] greater than 100 µM. For the same molecule, the TGI [44] was greater than 100 µM, the GI50 [45] was greater than 100 µM and the TGI [45] was greater than 100 µM. The GI50 [46] was greater than 100 µM, the TGI [46] was greater than 100 µM and the GI50 [47] was greater than 100 µM. The TGI [47] was greater than 100 µM, the GI50 [48] was greater than 100 µM and the TGI [48] was greater than 100 µM. It also gave a GI50 [49] greater than 100 µM, a TGI [49] greater than 100 µM and a GI50 [50] greater than 100 µM. It also gave a TGI [50] greater than 100 µM, a GI50 [51] greater than 100 µM and a TGI [51] greater than 100 µM. For the same molecule, the GI50 [52] was greater than 100 µM, the TGI [52] was greater than 100 µM and the GI50 [53] was greater than 100 µM. For the same molecule, the TGI [53] was greater than 100 µM, the GI50 [54] was greater than 100 µM and the TGI [54] was greater than 100 µM. The GI50 [55] was greater than 100 µM, the TGI [55] was greater than 100 µM and the GI50 [56] was 24.4 µM. For the same molecule, the TGI [56] was greater than 100 µM, the GI50 [57] was greater than 100 µM and the TGI [57] was greater than 100 µM. It also gave a GI50 [58] greater than 100 µM and a TGI [58] greater than 100 µM.
